# Source: BindingDB's records for 21215642
# The chains behind the UniProt entries cited, without tags or fusion partners. Residues count along the entry.
# UniProt P22303, 32-614 limits assumed: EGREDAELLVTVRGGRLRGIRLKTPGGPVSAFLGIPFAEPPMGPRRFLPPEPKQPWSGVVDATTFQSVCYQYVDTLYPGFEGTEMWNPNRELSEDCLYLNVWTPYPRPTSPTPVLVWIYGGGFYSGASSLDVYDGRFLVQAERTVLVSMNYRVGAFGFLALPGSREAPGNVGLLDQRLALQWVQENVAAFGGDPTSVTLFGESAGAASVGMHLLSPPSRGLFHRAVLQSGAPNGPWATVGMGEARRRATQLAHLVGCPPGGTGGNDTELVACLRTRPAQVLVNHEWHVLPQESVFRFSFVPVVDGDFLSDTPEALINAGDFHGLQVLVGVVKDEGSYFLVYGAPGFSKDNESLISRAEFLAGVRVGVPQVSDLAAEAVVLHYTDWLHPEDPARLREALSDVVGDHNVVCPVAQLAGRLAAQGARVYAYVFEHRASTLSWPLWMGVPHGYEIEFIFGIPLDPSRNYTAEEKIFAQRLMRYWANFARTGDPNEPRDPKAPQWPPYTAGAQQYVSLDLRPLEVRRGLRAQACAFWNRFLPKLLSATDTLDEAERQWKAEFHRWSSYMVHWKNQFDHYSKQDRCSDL
# pIC50: −log10 of the molar value.
# Target: Acetylcholinesterase (Homo sapiens, UniProt P22303)
# Experiment: Inhibition of human recombinant AChE by modified Ellman's method
row,SMILES,pIC50
1,O=NCc1cc[n+](CCC[n+]2ccc(-c3ccccc3)cc2)cc1,3.95
2,N=C(NO)c1cc[n+](CCC[n+]2ccc(CN=O)cc2)cc1,3.54
3,CC(=O)c1cc[n+](CCC[n+]2ccc(CN=O)cc2)cc1,3.98
